Legend:
[1] = room temperature; background statement; cited from earlier work
[2] = Solubility experiments: ester mixed with solvents commonly found in personal care formulations
[3] = 10% Ester/90% Solvent, 23.5° C.

Substance | Solubility in nonpolar solvents compared with cetearyl stearate [1] | Solubility in Castor Oil [2, 3] | Solubility in Dimethylsiloxane [2, 3] | Solubility in Mineral Oil [2, 3] | Solubility in the nonpolar solvents ([2]; room temperature)
Isocetyl stearate | more soluble |  |  |  | 
cetearyl stearate |  | Cloudy solid | White solid | Cloudy solid | precipitates as a solid out of solution
